Target: T1, recombinant human MAO-A (Homo sapiens, UniProt P21397)
T1 construct: purchased BD Biosciences (Bedford, MA, USA)
Assay: Enzyme kinetics / inhibition mechanism, MAO-A (Ki, Lineweaver-Burk)
Assay type: biochemical

The chains behind the UniProt entries cited, without tags or fusion partners.
UniProt P21397, whole entry: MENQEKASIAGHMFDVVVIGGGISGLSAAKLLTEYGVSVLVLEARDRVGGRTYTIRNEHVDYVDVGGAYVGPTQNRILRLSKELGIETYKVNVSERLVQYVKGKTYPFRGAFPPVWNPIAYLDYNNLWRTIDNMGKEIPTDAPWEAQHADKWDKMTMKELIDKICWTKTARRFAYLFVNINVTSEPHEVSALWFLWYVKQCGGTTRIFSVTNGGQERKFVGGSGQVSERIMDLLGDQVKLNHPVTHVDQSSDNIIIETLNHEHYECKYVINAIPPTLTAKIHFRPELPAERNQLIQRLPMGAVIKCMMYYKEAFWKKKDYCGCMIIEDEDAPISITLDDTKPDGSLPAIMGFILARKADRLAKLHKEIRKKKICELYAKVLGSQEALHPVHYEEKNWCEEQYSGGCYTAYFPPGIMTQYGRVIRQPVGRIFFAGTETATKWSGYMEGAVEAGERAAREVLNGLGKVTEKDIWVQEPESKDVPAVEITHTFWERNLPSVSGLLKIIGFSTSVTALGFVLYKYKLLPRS

C#CCN(C)CCCOc1ccc(Cl)cc1Cl [Clorgyline, clorgyline, reference compound]
Monoamine Oxidase-A Type of Inhibition: Mixed/Irreversible
